# Source: patent US20130071854A1, “METHODS FOR THE IDENTIFICATION AND CHARACTERIZATION OF HDAC INTERACTING COMPOUNDS” (priority 2009, published 2013)
# Chains of the proteins cited; added tags and fusions are not shown. Lines headed by an entry give the natural chain unless they say otherwise; changes in a name come on top.
# UniProt O15379: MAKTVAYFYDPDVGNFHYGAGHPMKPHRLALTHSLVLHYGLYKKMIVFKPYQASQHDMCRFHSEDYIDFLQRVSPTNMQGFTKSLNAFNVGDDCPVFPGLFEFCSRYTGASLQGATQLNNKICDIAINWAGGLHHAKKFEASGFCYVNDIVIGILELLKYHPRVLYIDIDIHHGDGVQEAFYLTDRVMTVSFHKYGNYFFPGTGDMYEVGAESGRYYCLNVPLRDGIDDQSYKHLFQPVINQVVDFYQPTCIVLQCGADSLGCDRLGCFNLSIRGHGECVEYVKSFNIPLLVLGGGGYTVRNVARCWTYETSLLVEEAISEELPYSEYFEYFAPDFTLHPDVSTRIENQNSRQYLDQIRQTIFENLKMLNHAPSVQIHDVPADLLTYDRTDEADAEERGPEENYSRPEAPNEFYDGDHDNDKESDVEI
# Several values for one entry are separate records, joined by “and”; a condition that tells them apart may be missing. Equal entries are not always repeated.
# What was measured:
# [1] = system: GATAD2A; experiment: Competition binding assay in cell lysate, affinity matrix, MS (Mi-2/NuRD interactor); settings: K-562 cell lysate
# [2] = target: T1, HDAC10 (Homo sapiens, UniProt Q969S8); experiment: Chemoproteomic binding profiling, K562 cell extract, SAHA/ITF2357 probe matrix (Kd app); design: used to probe endogenous HDACs in K562 whole cell extracts; endogenous in cells; host or cells: K-562
# T1 sequence (Q969S8 1-669): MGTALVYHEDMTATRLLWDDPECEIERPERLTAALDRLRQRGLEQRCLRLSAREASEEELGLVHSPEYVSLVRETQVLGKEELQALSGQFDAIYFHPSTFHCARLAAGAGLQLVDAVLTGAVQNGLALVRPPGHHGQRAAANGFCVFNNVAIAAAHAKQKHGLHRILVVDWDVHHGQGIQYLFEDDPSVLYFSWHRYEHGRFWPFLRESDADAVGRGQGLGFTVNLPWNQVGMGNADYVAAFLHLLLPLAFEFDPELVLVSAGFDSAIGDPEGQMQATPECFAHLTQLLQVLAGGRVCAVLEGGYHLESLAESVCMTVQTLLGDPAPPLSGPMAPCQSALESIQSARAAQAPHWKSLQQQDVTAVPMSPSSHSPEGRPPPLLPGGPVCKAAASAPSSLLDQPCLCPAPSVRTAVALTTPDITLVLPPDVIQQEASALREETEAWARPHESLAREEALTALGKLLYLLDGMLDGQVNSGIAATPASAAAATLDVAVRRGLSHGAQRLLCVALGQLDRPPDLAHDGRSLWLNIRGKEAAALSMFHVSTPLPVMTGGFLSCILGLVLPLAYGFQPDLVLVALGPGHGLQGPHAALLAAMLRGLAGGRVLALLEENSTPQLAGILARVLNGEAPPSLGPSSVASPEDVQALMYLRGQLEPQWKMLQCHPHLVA
# [3] = target: T2, non-HDAC targets (e.g. BZW2, ISOC2, aldehyde dehydrogenases) (Homo sapiens, UniProt Q96AB3); experiment: as above; settings: protein ISOC2; selected HDACi off-targets
# T2 construct: endogenous in cells; host or cells: K562 whole cell extract
# T2 sequence (Q96AB3 1-205): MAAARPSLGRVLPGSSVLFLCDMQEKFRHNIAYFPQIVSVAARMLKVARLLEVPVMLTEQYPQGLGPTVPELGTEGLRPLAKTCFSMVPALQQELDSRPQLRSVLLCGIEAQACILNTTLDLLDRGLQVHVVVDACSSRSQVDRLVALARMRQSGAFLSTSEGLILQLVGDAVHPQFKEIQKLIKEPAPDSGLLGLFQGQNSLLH
# [4] = target: T3, non-HDAC targets (e.g. BZW2, ISOC2, aldehyde dehydrogenases) (Homo sapiens, UniProt Q9Y6E2); experiment: as above; settings: protein BZW2; selected HDACi off-targets
# T3 construct: endogenous in cells; host or cells: K562 whole cell extract
# T3 sequence (Q9Y6E2 1-419): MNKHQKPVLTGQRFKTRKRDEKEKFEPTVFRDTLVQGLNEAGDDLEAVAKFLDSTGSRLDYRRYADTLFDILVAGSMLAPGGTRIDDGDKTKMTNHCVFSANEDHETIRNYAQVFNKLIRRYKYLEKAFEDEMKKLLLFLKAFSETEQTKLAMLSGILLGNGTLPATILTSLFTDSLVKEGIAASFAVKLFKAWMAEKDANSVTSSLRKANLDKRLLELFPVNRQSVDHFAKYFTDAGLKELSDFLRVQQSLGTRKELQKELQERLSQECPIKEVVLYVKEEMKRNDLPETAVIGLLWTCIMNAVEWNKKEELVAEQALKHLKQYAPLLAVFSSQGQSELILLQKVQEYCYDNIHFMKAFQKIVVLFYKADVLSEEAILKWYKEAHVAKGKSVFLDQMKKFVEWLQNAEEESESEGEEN
# [5] = target: T4, non-HDAC targets (e.g. BZW2, ISOC2, aldehyde dehydrogenases) (Homo sapiens, UniProt O94788); experiment: as above; settings: protein ALDH1A2; selected HDACi off-targets
# T4 construct: endogenous in cells; host or cells: K562 whole cell extract
# T4 sequence (O94788 1-518): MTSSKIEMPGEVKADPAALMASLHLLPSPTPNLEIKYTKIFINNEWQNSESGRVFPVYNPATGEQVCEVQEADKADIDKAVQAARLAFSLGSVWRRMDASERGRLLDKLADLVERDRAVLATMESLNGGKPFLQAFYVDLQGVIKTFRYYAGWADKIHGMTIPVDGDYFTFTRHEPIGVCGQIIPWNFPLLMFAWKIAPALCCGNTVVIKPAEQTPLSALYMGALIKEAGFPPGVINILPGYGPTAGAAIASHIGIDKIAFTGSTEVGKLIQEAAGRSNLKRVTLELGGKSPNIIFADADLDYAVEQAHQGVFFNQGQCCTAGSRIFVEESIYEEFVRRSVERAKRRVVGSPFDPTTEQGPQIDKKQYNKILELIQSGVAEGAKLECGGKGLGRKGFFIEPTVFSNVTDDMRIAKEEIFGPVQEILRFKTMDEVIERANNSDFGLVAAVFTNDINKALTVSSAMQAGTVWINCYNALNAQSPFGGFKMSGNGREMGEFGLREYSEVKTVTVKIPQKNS
# [6] = system: RBBP4
# [7] = target: T1, HDAC10; experiment: Competition binding assay in cell lysate, affinity matrix, MS; design: used to probe endogenous HDACs in K562 whole cell extracts; endogenous in cells; host or cells: K-562; settings: K-562 cell lysate
# [8] = target: T5, HDAC8 (Homo sapiens, UniProt Q9BY41); experiment: Chemoproteomic binding profiling, K562 cell extract, SAHA/ITF2357 probe matrix (Kd app); design: used to probe endogenous HDACs in K562 whole cell extracts; endogenous in cells; host or cells: K-562; settings: read-out: Kd^app HDAC8; protein HDAC8; class I HDAC
# T5 sequence (Q9BY41 1-377): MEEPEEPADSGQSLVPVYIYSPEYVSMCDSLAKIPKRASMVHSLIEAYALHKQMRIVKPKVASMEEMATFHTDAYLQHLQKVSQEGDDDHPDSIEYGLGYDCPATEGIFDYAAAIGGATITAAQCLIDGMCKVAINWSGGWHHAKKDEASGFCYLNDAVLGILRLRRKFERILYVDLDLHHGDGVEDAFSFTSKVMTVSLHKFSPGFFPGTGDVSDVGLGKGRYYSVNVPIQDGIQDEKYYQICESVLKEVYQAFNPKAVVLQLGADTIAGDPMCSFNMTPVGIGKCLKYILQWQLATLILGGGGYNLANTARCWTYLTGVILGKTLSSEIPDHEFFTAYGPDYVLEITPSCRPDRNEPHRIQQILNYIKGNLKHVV
# [9] = target: HDAC3-NCoR complex (Homo sapiens, UniProt O15379); experiment: as above
# [10] = target: HDAC3 (Homo sapiens, UniProt O15379); experiment: as above
Kd ([9]; Kd^app GPS2),Kd ([9]; Kd^app NCOR1),Kd ([9]; Kd^app NCOR2),Kd ([9]; Kd^app TBL1X),Kd ([9]; Kd^app TBL1XR1),Kd [10],SMILES,IC50 [1],Kd [2],Kd [3],Kd [4],Kd [5],IC50 [6],IC50 [7],Kd [8]
,,,,,,"O=C(CCCCCCC(=O)Nc1ccccc1)NO [SAHA, suberoylanilide hydroxamic acid]",0.79 µM,0.78 µM,0.03 µM,1.97 µM,0.5 µM,0.46 µM and 0.79 µM,≥ 10 µM,> 10 µM
2410 µM,2870 µM,4330 µM,2880 µM,1330 µM,4810 µM,"CCCC(CCC)C(=O)O [valproate, valproic acid]",,,,,,,,
